# Measured values reported in patent publication US8729088B2, “Toll-like receptor modulators and treatment of diseases” (The Regents of the University of California, priority 2009, dated 2014).
# What was measured:
# TLR7 [1] = target: T1, TLR7 (Mus musculus, UniProt P58681); test: Cytokine induction in BMDM from wild type and TLR7 deficient mice; assay type: cell-based; design: endogenous in cells; host or cells: primary BMDM from C57BL/6 mice
# T1 sequence (P58681 27-1050): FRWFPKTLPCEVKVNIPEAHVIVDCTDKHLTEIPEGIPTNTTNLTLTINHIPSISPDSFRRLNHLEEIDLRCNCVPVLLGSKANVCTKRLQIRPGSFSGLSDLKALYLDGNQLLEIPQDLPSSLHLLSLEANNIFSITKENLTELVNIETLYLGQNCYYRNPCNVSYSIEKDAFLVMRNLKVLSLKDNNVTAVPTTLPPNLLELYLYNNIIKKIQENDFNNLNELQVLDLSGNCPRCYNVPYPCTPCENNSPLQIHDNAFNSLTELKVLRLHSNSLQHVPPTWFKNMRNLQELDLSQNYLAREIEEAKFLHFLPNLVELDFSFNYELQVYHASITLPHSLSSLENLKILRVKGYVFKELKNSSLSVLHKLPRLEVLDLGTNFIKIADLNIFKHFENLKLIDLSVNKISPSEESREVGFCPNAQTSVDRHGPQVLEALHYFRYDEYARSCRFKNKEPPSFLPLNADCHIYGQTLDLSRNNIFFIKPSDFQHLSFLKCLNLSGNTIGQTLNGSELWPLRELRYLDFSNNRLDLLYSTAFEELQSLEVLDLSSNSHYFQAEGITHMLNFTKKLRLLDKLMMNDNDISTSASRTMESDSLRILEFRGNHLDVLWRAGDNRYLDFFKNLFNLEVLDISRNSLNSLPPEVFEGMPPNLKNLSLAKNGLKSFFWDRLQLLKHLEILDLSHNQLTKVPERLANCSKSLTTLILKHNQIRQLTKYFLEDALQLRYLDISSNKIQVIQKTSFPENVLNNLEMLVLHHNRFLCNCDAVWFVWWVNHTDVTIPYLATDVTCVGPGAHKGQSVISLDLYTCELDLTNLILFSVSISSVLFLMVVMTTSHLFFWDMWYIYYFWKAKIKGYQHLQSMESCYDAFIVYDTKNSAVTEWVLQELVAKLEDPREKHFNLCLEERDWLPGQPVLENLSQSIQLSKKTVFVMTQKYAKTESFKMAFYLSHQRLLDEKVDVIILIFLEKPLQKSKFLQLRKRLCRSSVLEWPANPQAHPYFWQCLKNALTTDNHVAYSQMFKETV
# Procedure: In vitro measurements of cytokine induction were performed using the mouse leukemic monocyte macrophage cell line, RAW264.7. […] BMDM were prepared from C57BL/6 and TLR7 deficient mice as described in Wu, C. C et al., (2007) “Immunotherapeutic activity of a conjugate of a Toll-like receptor 7 ligand”, Proc Natl Acad Sci USA 104, 3990-5.
# In general, RAW264.7 cells or BMDM were incubated with various concentrations of conjugates for 18 hours at 37° C., 5% CO2 and culture supernatants were collected. The levels of cytokines (IL-6, IL-12 or TNF-α in the supernatants were determined by ELISA (BD Biosciences Pharmingen, La Jolla, Calif.) (Cho, H. J et al., “Immunostimulatory DNA-based vaccines induce cytotoxic lymphocyte activity by a T-helper cell-independent mechanism” [see comments], Nat Biotechnol 18, 509-14 (2000)), and the results presented in FIG. 2A-D. Data are mean±SEM of triplicates and are representative of three independent experiments. Minimum detection levels of these cytokines were 15 pg/mL.
# TLR7 [2] = target: T2, TLR7 (Homo sapiens, UniProt Q9NYK1); test: Cytokine induction in human PBMC, LUMINEX bead assay; assay type: cell-based; design: endogenous in cells; host or cells: human PBMC from buffy coats (The San Diego Blood Bank); conditions: 18 hours
# T2 sequence (Q9NYK1 27-1049): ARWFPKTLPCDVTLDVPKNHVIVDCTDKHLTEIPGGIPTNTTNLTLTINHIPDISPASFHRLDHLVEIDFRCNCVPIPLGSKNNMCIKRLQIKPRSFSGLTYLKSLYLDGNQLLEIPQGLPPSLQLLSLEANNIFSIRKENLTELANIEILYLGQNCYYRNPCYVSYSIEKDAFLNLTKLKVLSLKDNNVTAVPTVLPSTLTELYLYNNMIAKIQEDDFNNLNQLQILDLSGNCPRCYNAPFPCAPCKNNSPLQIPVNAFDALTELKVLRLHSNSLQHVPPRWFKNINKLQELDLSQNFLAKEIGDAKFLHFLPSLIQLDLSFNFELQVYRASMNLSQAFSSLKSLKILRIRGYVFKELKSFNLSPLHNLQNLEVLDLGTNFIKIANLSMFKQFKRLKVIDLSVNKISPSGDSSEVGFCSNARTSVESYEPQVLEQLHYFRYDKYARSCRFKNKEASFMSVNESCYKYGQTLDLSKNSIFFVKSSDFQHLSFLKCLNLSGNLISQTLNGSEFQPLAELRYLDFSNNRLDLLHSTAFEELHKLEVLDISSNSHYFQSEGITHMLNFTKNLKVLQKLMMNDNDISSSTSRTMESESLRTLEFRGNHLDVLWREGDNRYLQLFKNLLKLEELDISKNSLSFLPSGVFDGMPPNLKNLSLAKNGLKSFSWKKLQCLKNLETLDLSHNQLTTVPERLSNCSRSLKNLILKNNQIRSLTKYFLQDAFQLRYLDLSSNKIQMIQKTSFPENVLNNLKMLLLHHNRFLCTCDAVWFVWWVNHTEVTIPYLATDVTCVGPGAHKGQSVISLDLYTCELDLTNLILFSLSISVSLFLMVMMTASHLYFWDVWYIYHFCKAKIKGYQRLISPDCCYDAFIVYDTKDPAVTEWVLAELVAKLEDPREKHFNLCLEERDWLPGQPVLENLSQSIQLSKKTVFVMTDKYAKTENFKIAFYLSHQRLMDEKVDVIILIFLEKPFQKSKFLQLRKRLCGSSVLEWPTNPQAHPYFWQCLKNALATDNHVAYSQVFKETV
# Procedure: Human blood peripheral mononuclear cells (PBMC) were isolated from human buffy coats, purchased from The San Diego Blood Bank (San Diego, Calif.), as described in Hayashi, T et al., “Enhancement of innate immunity against Mycobacterium avium infection by immunostimulatory DNA is mediated by indoleamine 2,3-dioxygenase”, Infect Immun 69:6156-64, (2001). PBMC (1×10^6/mL) were incubated with various concentrations of TLR7 conjugates for 18 hours at 37° C., 5% CO2 and culture supernatants were collected. The levels of cytokines (IL-6, TNF-α, or IFNα1) in the supernatants were determined by LUMINEX bead assays (Invitrogen, Carlsbad, Calif.), and the results presented in FIG. 3A-B. Data are mean±SEM of triplicates and are representative of three independent experiments. The minimum detection levels of IL-6, TNF-α, and IFNα1 were 6 pg/mL, 10 pg/mL and 15 pg/mL, respectively.
# To further investigate the immunological activities in human cells, human PBMC from three donors were treated with TLR7 conjugates and the levels of IL-6 and IFNa1 were determined by LUMINEX assay (FIG. 3A-B). Human serum albumin (HSA) conjugated to TLR7 (4b) was used instead of MSA-conjugates (4a) in this experiment. The order of TLR7 conjugate potency was similar to the order observed in murine macrophages ((4b)>(6)>(9)>/=SM>(8)) (FIG. 3A).
# TLR7 [3] = target: T2, TLR7; conditions: literature reference (8); cited from earlier work
structure (smiles),measurement,setting,value
"COCCOc1nc(N)c2nc(O)n(Cc3ccccc3)c2n1 [SM, 9-benzyl-8-hydroxy-2-(2-methoxyethoxy) adenine, reference compound]","agonist activity (IL-12, IL-6)",TLR7 [1],active
same,order of TLR7 conjugate potency,TLR7 [2],(4b)>(6)>(9)>/=SM>(8)
same,TLR7 agonist activity,TLR7 [3],potent and specific TLR7 agonist
